Results: patent publication US5413915A (priority 1991, dated 1995)
Like-named read-outs stand apart in the source and are kept apart here.

Key:
[1] = 1979 Registry and 1983-84 Supplement of NIOSH RTECS; cited from earlier work
[2] = discernible color within 24 hours, leuco-PRA detection element

In the case of CCOP(=S)(CC)Sc1ccccc1 (stereo not shown), the “Detector Response, threshold dose” value (rat liver microsomes; superscript a: first of two rat sources for microsomal material) is reported as 10-100 micromols.

For CN(N=O)C(=N)N[N+](=O)[O-], the “Carcinogenic Status” value [1] is listed as “Positive”.

With NNc1ccc([N+](=O)[O-])cc1[N+](=O)[O-] the “Detector Response, threshold dose” value (rat liver microsomes; [2]) was 0.01 micromols.

In the case of AgNO3, the “Detector Response, threshold dose” value (rat liver microsomes; [2]) is reported as < 5 micromols.

For BHA, the “Detector Response, threshold dose” value (rat liver microsomes; [2]) was 0.3 micromols.

In the case of NH2 OH, the “Detector Response, threshold dose” value (rat liver microsomes; [2]) is reported as 0.1 micromols.

For Ni(II), the “Detector Response, threshold dose” value (rat liver microsomes; [2]) was < 1 micromols.
